Measurements from PubChem BioAssay AID602247 (The Scripps Research Institute Molecular Screening Center, 2012).
The list shows a part of the results, in another mix than the full data. Active and inactive are the calls of the source.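 Rule for the calls: active = activation above the run cutoff, the mean activation of all test compounds plus 3 SD (cut at about 40% in these data); inactive = the rest.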

Assay: ATP EC20 calcium response enhancers, parental CHO-K1 – cell-based, Fluo-8 calcium fluorescence, full deck, 1536-well, counter-screen for M1 PAM project, primary screen (AID 602247);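 note: peak over basal fluorescence ratio in a 140 s read after ATP addition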
Details: parental CHO-K1, ATP EC20, Fluo-8 calcium fluorescence; at 3 µM; stronger effect = higher value; 0% at ATP EC20, 100% at ATP max

SMILES	activation
c1cc(-c2nn[nH]n2)ccc1-c1nn[nH]n1	inactive: 5.71%
CC1CCN(C(=O)Oc2c(Cl)cc(Cl)c3cccnc23)CC1	inactive: 10.7%
CC(C)=N/N=C(\N)N[N+](=O)[O-]	inactive: 16.4%
CC(C)c1nc(Nc2ccccc2)n(P(=O)(N(C)C)N(C)C)n1	inactive: -10.7%
CN(C)C(=O)OCCc1n(C)cc[n+]1C	inactive: 17.7%
O=P1(N(CCCl)CCCl)OCCCS1 (stereo not given)	inactive: 15.7%
O=C(Nc1cc([As](=O)(O)O)ccc1O)c1ccccc1	inactive: 7.53%
O=[N+]([O-])c1ncn(CCn2ncnc2[N+](=O)[O-])n1	inactive: 6.13%
CC(C)(C)C(=O)NC(Sc1ccncn1)C(Cl)(Cl)Cl (stereo not given)	inactive: -5.67%
C/C=C1/C[C@@H](C)[C@](O)(CO)C(=O)OCC2=CCN3CC[C@@H](OC1=O)[C@@H]23	inactive: 2.33%
O=C(O)CNc1ccc([As](=O)(O)O)cc1	inactive: -22.6%
O=[N+]([O-])c1cccc(NC2=NCC(CBr)S2)c1 (stereo not given)	inactive: 9.24%
COC(=O)C1(C)COP(=O)(Nc2ccccc2)OC1 (stereo not given)	inactive: 9.37%
CN(C)P(=O)(N(C)C)n1c(Nc2ccccc2)nnc1-c1ccccc1	inactive: 11.2%
O=P(Nc1nc2ccc(Cl)cc2s1)(c1ccccc1)c1ccccc1	inactive: -9.78%
O=C(O)c1ccccc1[As](=O)(O)O	inactive: 3.66%
CC(=O)Nc1ccc([As](=O)(O)O)cc1	inactive: -15.2%
CC(=O)O[C@]1(C)C(=O)OC/C2=C/CN(C)CCC(OC(=O)[C@@](O)(C(C)O)C[C@H]1C)C2=O (stereo not given in full)	inactive: 2.3%
CCCC1OP(N)(=O)OCC1CC (stereo not given)	inactive: 6.69%
CCOP(=O)(Nc1ccccc1)OCC	inactive: 5.92%
Cc1cc(SC(NC(=O)c2ccc(F)cc2)C(Cl)(Cl)Cl)ncn1 (stereo not given)	inactive: -8.06%
CN(C(=O)Cc1ccc(Cl)c(Cl)c1)[C@H]1CCCC[C@@H]1N1CCCC1	inactive: 7.37%

SMILES	activation
Cc1ccc(NP(=O)(Oc2ccccc2F)Oc2ccccc2F)nc1	inactive: 1.27%
Nc1cccc2ccc([As](=O)(O)O)cc12	inactive: -1.79%
CCN(N=Nc1nonc1N)c1nonc1N	inactive: 21.5%
CN(C(=O)Cc1ccc(Cl)c(Cl)c1)[C@H]1CCCC[C@H]1N1CCCC1	inactive: 13.5%
Cc1ccc(N/C(=N/P(=O)(N2CCOCC2)N2CCOCC2)N2CCOCC2)cc1	inactive: -23.1%
NC(=O)c1cc([N+](=O)[O-])cc([N+](=O)[O-])c1N	inactive: 14.4%
Clc1ccc(Cl)c(NC2=NCC(CBr)S2)c1 (stereo not given)	inactive: 14.4%
CN1CCCC(OC(=O)C(c2ccccc2)c2ccccc2)C1 (stereo not given)	inactive: -1.82%
CC(C)[C@H]1C(=O)O[C@@H]2CCN3CC=C(COC(=O)[C@](C)(O)[C@]1(C)O)[C@H]23	inactive: 6.57%
COc1ccccc1OP(=O)(Nc1ccc(C)cn1)Oc1ccccc1OC	inactive: -16%
Cc1ccc(OP(=O)(Nc2nccs2)Oc2ccc(C)cc2)cc1	inactive: 23.9%
Oc1ccccc1CNc1ccccn1	inactive: 17.9%
O=C(NC(Sc1ccncn1)C(Cl)(Cl)Cl)c1ccccc1 (stereo not given)	inactive: 21%
CC(C)CC(=O)NC(Sc1ccc(Cl)cc1)C(Cl)(Cl)Cl (stereo not given)	inactive: 3.69%
Nc1cc(N)c2nonc2c1[N+](=O)[O-]	inactive: 3.33%
O=[N+]([O-])C1C(O)C(O)C([N+](=O)[O-])C(O)C1O (stereo not given)	inactive: 23.1%
O=P1(Nc2nc3ccc(Cl)cc3s2)COc2ccccc2O1 (stereo not given)	inactive: 13.5%
CCOc1ccc(C2=NCC(CBr)S2)cc1 (stereo not given)	inactive: 1.52%
CC(C)(C)C(=O)NC(Sc1ccccc1)C(Cl)(Cl)Cl (stereo not given)	inactive: 0.01%
CCc1cc(O)c([N+](=O)[O-])c(C)c1[N+](=O)[O-]	inactive: 18.9%
CCN(CC)CCOC(=O)C(O)(c1ccccc1)c1ccccc1	inactive: -1.94%
Cc1ccccc1CN(C)C(=O)COC(=O)C(O)(c1ccccc1)c1ccccc1	inactive: -14%

SMILES	activation
C[C@@H]1C=CCP(=O)(Oc2ccccc2)O1 (stereo not given in full)	inactive: 14.6%
C[C@H]1OP(=O)(Oc2ccccc2)C[C@@H]2O[C@@H]21 (stereo not given in full)	inactive: -9.48%
N#C/C(=C\c1ccc(N(CCBr)CCBr)cc1)C(N)=O	inactive: 19.9%
CC(=O)c1ccc(N2CC2c2ccncc2)cc1 (stereo not given)	inactive: -1%
CC1C(=O)OC2CCN3CC=C(COC(=O)C(C)(O)C1(C)O)C23 (stereo not given)	inactive: -4.13%
COC(=O)C1(C)COP(=O)(NCc2ccccc2)OC1 (stereo not given)	inactive: 7.3%
CC(=O)Nc1ccc([As](=O)(O)O)c(O)c1	inactive: 19%
CC(=O)Nc1ccc(Oc2c([N+](=O)[O-])cc([N+](=O)[O-])cc2[N+](=O)[O-])cc1	inactive: 11.1%
c1ccc(-c2nn[nH]n2)c(-c2nn[nH]n2)c1	inactive: 20.9%
Cc1ccc(NP(=O)(Oc2cccc(C)c2)Oc2cccc(C)c2)nc1	inactive: 8.47%
C=C1C(=O)OC2CCN3CC=C(COC(=O)C(C)(O)C4(CO4)C1C)C23 (stereo not given)	inactive: 8.19%
O=C(NC1CCS(=O)(=O)C1)NP(=S)(Oc1ccccc1)Oc1ccccc1 (stereo not given)	inactive: -13.9%
CCNC(=S)/N=C(\N)N[N+](=O)[O-]	inactive: 6.42%
CC1C(=O)OC2CCN3CC4OC4(COC(=O)C(C)(O)C1(C)O)C23 (stereo not given)	inactive: 14.8%
O=P1(N(CCCl)CCCl)OCCC2CCCCN21 (stereo not given)	inactive: 7.5%
O=C(OC1CN2CCC1CC2)c1ccccc1 (stereo not given)	inactive: 13.1%
Clc1ccc(N2CCN(Cc3c[nH]c4ncccc34)CC2)cc1	inactive: 16.3%
CCC(=O)N1C2C3N(C(=O)CC)C1C1N(C(=O)CC)C(C(N1C(=O)CC)N3C(=O)CC)N2C(=O)CC	inactive: 11.9%
COC(=O)c1cc2c(s1)N=C(c1ccccc1)N(C)P2(=O)N1CCOCC1 (stereo not given)	inactive: 8.13%
CC(=O)NC(SC(=S)N(CC(C)C)CC(C)C)C(Cl)(Cl)Cl (stereo not given)	inactive: 2.12%
Cc1ccc(OP(=O)(Nc2ccccn2)Oc2ccc(C)cc2)cc1	inactive: 17.6%
Cc1ccccc1OP(=O)(Nc1ccccn1)Oc1ccccc1C	inactive: 13%

SMILES	activation
CC(NC(=O)COC(=O)C(O)(c1ccccc1)c1ccccc1)c1ccccc1 (stereo not given)	inactive: -11.9%
CN(C)C(=O)Oc1noc2ccccc12	inactive: 6.18%
O=c1c2cc([N+](=O)[O-])ccc2[nH]c2c([N+](=O)[O-])cc([N+](=O)[O-])cc12	inactive: 19.1%
CCN(C(=O)COC(=O)C(O)(c1ccccc1)c1ccccc1)c1c(N)n(Cc2ccccc2)c(=O)[nH]c1=O	inactive: -2.15%
O=P(Nc1ccccn1)(c1ccc(Br)cc1)c1ccc(Br)cc1	inactive: 8.07%
Nc1ccc(CCCCOc2ccccc2)cc1	inactive: 18.6%
COc1ccc(N)c([N+](=O)[O-])c1[N+](=O)[O-]	inactive: 3.13%
O=P(Nc1nc2ccccc2s1)(c1ccccc1)c1ccccc1	inactive: -0.72%
C[C@H]1OP(=O)(Oc2ccccc2)[C@H](O)[C@H](O)[C@H]1N=[N+]=[N-] (stereo not given in full)	inactive: -4.17%
O=[As](O)(c1ccccc1)c1ccc(O)cc1	inactive: -6.11%
CC(=O)NC(SC(=S)N(C)C)C(Cl)(Cl)Cl (stereo not given)	inactive: 10.8%
O=[N+]([O-])c1ncn(CCn2cnc([N+](=O)[O-])n2)n1	inactive: 8.95%
O=[N+]([O-])c1ccc(O)c(/C=N/Nc2ccc([N+](=O)[O-])cc2[N+](=O)[O-])c1	inactive: -5.82%
O=C(OC1CN2CCC1CC2)c1cccc(Cl)c1 (stereo not given)	inactive: 16.5%
Nc1ccc([As](=O)(O)c2ccc([N+](=O)[O-])cc2)cc1	inactive: -9.26%
C(Cc1nn[nH]n1)Cc1nn[nH]n1	inactive: 15.1%
O=P(Nc1nccs1)(c1ccccc1)c1ccccc1	inactive: 22.6%
CC(C)C(=O)NC(Sc1ccccc1)C(Cl)(Cl)Cl (stereo not given)	inactive: 15.1%
c1nnnn1CCn1cnnn1	inactive: 19.6%
